This is a selection; strong and weak results do not stand in their true shares. Inconclusive results are not listed. The source made the active and inactive calls. Calls follow the shape of the dose curve; as a rule, active = well fitted inhibition curve with a large enough effect; inconclusive = small, poorly fitted or top-dose-only effect, or another doubt; inactive = no such curve, though single readings can be large or run the other way.
% is scaled to controls: 0 for no effect and ±100 for the full control effect.

This experiment can be described thus: qHTS of GLP-1 Receptor Inverse Agonists: Cytotox Screen.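 Also: loss of luciferase light is scored as toxicity.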 The note with it: HEK293 cAMP-luciferase reporter cells, luminescence, 24 h; at 38.3 µM (top of the series). The text has this: The overall goal of this project was to develop a novel assay for discovering small molecule ligands for class B1 G protein-coupled receptors (GPCRs). Very few agonists (or inverse agonists) with generally weak activity for this entire group of physiologically important receptors are known to date. To establish proof-of-principle that this critical bottleneck can be overcome with a suitable screening approach, our studies focused on the class B1 receptor for glucagon-like peptide-1 (GLP-1R), a potential therapeutic target for diabetes and neurodegenerative disease.
The assay was developed using a cell-based functional readout. Toward this goal, stably transfected HEK293 cell clones were established that co-express (i) a cAMP-responsive luciferase reporter gene, and (ii) constitutively active GLP-1R that upon ligand interaction inhibit (inverse agonists) the luciferase activity. […]
Six ul of cell suspension (200 cells/uL in DMEM + 10% Nu serum + 1% pen-strep) is dispensed in a white solid 1536-well plate. […] A luminescence read is obtained on the PerkinElmer Viewlux after 12 min incubation at room temperature.
For orientation: In qHTS, concentration-response curves come from the screen itself.
`CCC(=O)N(c1ccccc1)C1(COC)CCN(CCc2cccs2)CC1`: the activity change, negative = inhibition was inactive: 2.38%. Turning to `CCC(=O)N(c1ccccc1)C1(COC)CCN(CCn2nnn(CC)c2=O)CC1`, the activity change, negative = inhibition was inactive: -1.14%.

The values above are taken from PubChem BioAssay AID624418 (National Center for Advancing Translational Sciences (NCATS), 2012).
